Reference: article PMC3489161 (Pharmaceutical research, 2011)

Assays:
[1] = 14C-lapatinib distribution after intravenous dosing; format: in vivo, mice; conditions: 10 mg/kg i.v., 30 min
[2] = female, NuNu, mouse, in vivo, po, 100 mg/kg
P-gp (ABCB1) = conditions: P-gp knockout mice; cited from earlier work
[3] = Brain-to-plasma distribution after i.v. lapatinib infusion to steady state; format: in vivo, mice; conditions: lowered by ∼0.01 mL/g
[4] = tested on: P-gp (ABCB1) and BCRP (ABCG2); conditions: knockout of both P-gp and BCRP; cited from earlier work
[5] = cited from earlier work

Row | Molecule | Average accumulation in brain metastases relative to normal brain [1] | Brain-to-plasma concentration ratio after vascular correction ([2]; 2 h) | Mean brain-to-plasma ratio in brain metastases ([2]; 2 h) | Brain-to-plasma concentration ratio after vascular correction ([2]; 12 h) | Mean brain-to-plasma ratio in brain metastases ([2]; 12 h) | Increase of brain-to-plasma ratio (P-gp (ABCB1)) | Steady-state brain-to-plasma distribution ratio (P-gp (ABCB1)) | Brain/plasma ratio of Polli et al after vascular correction [3] | Brain-to-plasma lapatinib ratio [4] | Increase of brain-to-plasma lapatinib ratio [4] | Concentration in CSF, times lower than in serum [5]
1 | CS(=O)(=O)CCNCc1ccc(-c2ccc3ncnc(Nc4ccc(OCc5cccc(F)c5)c(Cl)c4)c3c2)o1 [lapatinib, N-{3-chloro-4-[(3-fluorobenzyl)oxy]phenyl}-6-[5-({[2-(methylsulfonyl)ethyl]amino}methyl)-2-furyl]-4-quinazolinamine] | 3.2 fold | 0.013 | 0.09 | 0.028 | 0.26 | 4-5 fold | 0.08 – 0.15 | 0.02-0.03 | 1.2- 1.7 | 50-60 fold | 
2 | trastuzumab: a humanized monoclonal antibody to HER2 |  |  |  |  |  |  |  |  |  |  | 300 times

Like-named read-outs stand apart in the source and are kept apart here.
